Experiments:
Histone deacetylase 8 [1] = biological target: T1, Histone deacetylase 8 (Homo sapiens, UniProt Q9BY41); experiment: HDAC8 Inhibition Assay (spectrofluorometric titration); conditions: pH 7.5
T1 sequence (Q9BY41 whole entry): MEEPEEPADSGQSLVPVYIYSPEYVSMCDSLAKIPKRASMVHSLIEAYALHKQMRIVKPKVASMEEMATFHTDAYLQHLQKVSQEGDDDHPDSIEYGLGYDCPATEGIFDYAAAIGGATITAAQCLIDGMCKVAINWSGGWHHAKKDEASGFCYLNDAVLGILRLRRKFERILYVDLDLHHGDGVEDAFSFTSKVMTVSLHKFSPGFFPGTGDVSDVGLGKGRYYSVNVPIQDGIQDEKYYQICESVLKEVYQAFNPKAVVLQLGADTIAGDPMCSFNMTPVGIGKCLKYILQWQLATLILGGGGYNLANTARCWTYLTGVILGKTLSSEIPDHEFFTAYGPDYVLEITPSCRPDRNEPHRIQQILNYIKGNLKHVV

Histone deacetylase 8 [2] = biological target: T1, Histone deacetylase 8; experiment: HDAC8 Inhibition Assay (kinetic method)
Experimental: To determine the dissociation rate of the inhibitor, 1 µM HDAC8 and 20 µM inhibitor (syringe I) were mixed with 100 µM c-SAHA (syringe II) via the stopped-flow system. The fluorescence was measured at 325 nm with a 395 nm cutoff filter.

## O=C(CCCCCCC(=O)Nc1ccccc1)NO [Zolinza]
Histone deacetylase 8 [1]
  Kd: 1.2 µM
Histone deacetylase 8 [2]
  Kd: 6.8 µM

From BindingDB's records for doi:10.1021/bi400740x (North Dakota State University, 2013)
